## Yeast mating assay 1: variants of the scFv Ab-14

Binding partner: SARS-CoV-2 spike HR2 peptide, sequence PDVDLGDISGINAS.

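The parent was found by panning a naive human phage display library on the peptide. In library AAYL50, one, two or three CDR residues were substituted; doubles and triples were drawn at random. Affinity was read by AlphaSeq, a pooled yeast mating assay with surface-displayed partners. After mating in shaken culture at 30 °C for 16 h, diploids were selected and their barcode pairs sequenced. Scores were corrected for input abundance and mapped to Kd with protein pairs of known affinity run in the same pool. There are three technical replicates.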

Each scFv is VH, three GGGGS repeats, VL, as in the parent Ab-14, and differs from it in the CDRs of the light chain only.
VH: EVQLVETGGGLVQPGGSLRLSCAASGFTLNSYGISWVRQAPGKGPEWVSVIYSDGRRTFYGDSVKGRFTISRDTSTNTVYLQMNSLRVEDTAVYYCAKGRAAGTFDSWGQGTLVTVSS
VL: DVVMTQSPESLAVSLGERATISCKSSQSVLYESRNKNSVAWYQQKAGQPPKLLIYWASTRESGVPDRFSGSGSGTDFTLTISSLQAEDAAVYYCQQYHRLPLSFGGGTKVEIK

Each variant is given by its three light chain CDRs, as the data file delimits them; those of the parent are KSSQSVLYESRNKNSVA, WASTRES, QQYHRLPLS. Values are log10 of the apparent Kd in nM; lower means stronger binding. Where no diploid with the target was found in that replicate, the entry reads "ND": below detection, most likely a poor binder, though not proof of it. Empty control strains, which show no peptide, gave a signal in 18% of pairings with library AAYL50; the median was 4.19 and 95% of these signals were weaker than 2.99. No background was subtracted. Also given: how often the same scFv was detected with the empty control strains, with their mean in brackets.

CDR-L1 | CDR-L2 | CDR-L3 | log10 Kd, replicates | empty controls
KSSQSVLYESRNANSVA | WASTRED | QQYHRLGLS | 0.53 / 0.85 / 0.39 | 0/9
KSSQSVLYESRNKNSSA | WNSTRES | SQYHRLPLS | ND / ND / ND | 0/9
KDMQSVLYESRNKNSVA | WASTRES | QQYHRLPLS | 1.25 / 1.37 / 1.30 | 5/9 (4.30)
KSSQSVLHESRNKNLVA | WASTRES | QQYHDLPLS | 5.26 / ND / ND | 4/9 (4.45)
KQSQSVLYEGHNKNSVA | WASTRES | QQYHRLPLS | 0.63 / 0.83 / 0.88 | 1/9 (3.81)
KSSQSVNYESRNKNSVA | WASTRKS | QQYHRLPLF | ND / ND / ND | 0/9
KSHQSVLYESRNKNSVA | WASIRES | QQYLRLPLS | 1.99 / 1.96 / 2.09 | 3/9 (4.32)
KSEQSVLYESRNGNNVA | WASTRES | QQYHRLPLS | 0.17 / 0.61 / 0.56 | 0/9
KSSQSVLYESRYKNIVA | WASTRES | QQYHRLPAS | ND / ND / ND | 0/9
KSSQSVLYETRNKNSVA | WASTRES | QQMHDLPLS | 3.41 / ND / 3.06 | 1/9 (5.41)
KSSQSVLGESRAKNSVA | WASTRES | QWYHRLPLS | 2.93 / 2.58 / 3.73 | 0/9
ASSQSVLYESRNKNSVA | WASTRES | QQRHRAPLS | 2.99 / ND / ND | 1/9 (3.10)
KSSQSVLYESDNINSVA | WASTRES | QGYHRLPLS | 1.98 / 1.83 / 1.96 | 1/9 (3.63)
KSSQSVLYESRNKNSVQ | WASTRES | QQYHRLPLS | ND / 3.57 / ND | 1/9 (3.98)
KSSQSVLYESRNKNSVA | WISQREF | QQYHRLPLS | ND / ND / ND | 1/9 (3.11)
KSSQSVLVESRYKNSVI | WASTRES | QQYHRLPLS | ND / ND / ND | 0/9
KSSQSVLYMSRNKNSVA | WASTRES | QQYHMLPLF | 3.78 / 4.22 / 3.74 | 4/9 (4.66)
KSSQSVLYESRNKNSVA | WASQRES | QCYHFLPLS | 2.08 / 2.30 / 2.47 | 1/9 (3.50)
KSSQSVLYESRNANSVA | WASTRES | EQYHRLPLM | 0.57 / 0.92 / 0.77 | 0/9
KSSQSVLYESRHYNSVA | WASTRES | QQYHILPLS | 1.30 / 1.43 / 1.55 | 0/9
KSSQSYLYESRNKNSVA | WASTRES | QQYHSLPES | ND / ND / ND | 0/9
KSSQSVLYMSRNKNVVA | WASTDES | QQYHRLPLS | ND / ND / 4.32 | 1/9 (4.66)
KSSQSVLYESRKKNSVA | WFSTRES | QQYGRLPLS | ND / ND / ND | 1/9 (3.00)
KSSQSVLYESRNKNKVA | WASTRQS | QAYHRLPLS | 4.59 / ND / 5.06 | 1/9 (3.68)
KSSGSVLYESRNKNSVA | WASTIES | QQYHRLMLS | ND / 3.26 / 4.27 | 0/9
KSSQSVLGESRNKNSVA | WVSTRES | QQYHRLPLN | 5.83 / 3.88 / ND | 2/9 (3.27)
KSLQSVLYETRNKNSVA | WASTRES | QRYHRLPLS | ND / ND / 3.98 | 1/9 (4.93)
KSSQSVLYESRYKNSVT | WASTRES | QQYHRWPLS | ND / 3.99 / ND | 1/9 (2.99)
KSSQSVLYPSRNKNSVA | WASTRES | QQYHRLPLS | 1.15 / 1.13 / 1.41 | 0/9
KMSQSVLYNSRNKNSMA | WASTRES | QQYHRLPLS | 0.13 / 0.58 / 0.18 | 0/9
KSSQSVWYESRNKISVA | WASTRES | QQYHLLPLS | 2.44 / 2.48 / 2.13 | 3/9 (4.38)
KSSQSVLYESRNKNGVA | WASCRES | QQYHRLPLA | 2.45 / 3.86 / ND | 1/9 (4.03)
KSSQSVLYESRNKNMVA | YASTRES | QQYDRLPLS | 1.16 / 1.22 / 1.25 | 3/9 (4.82)
VSSQSVLYESRNDNSVA | WASTRES | SQYHRLPLS | ND / ND / ND | 2/9 (4.71)
QSSQSMLYESRNKNSVI | WASTRES | QQYHRLPLS | ND / ND / ND | 0/9
KSSQSVLYESRNKYSVA | EASSRES | QQYHRLPLS | ND / ND / ND | 2/9 (4.67)
KSSFSVLYESRNKNSVA | WASTREW | QQYHRLPLM | 1.93 / 1.53 / 2.06 | 0/9
KSSQSTEYESRNKNSVA | WASTRES | QQYHRVPLS | 0.21 / 0.60 / 0.36 | 0/9
KSSQSVLYESQNKNSVD | WASTRES | QQYHRLPLS | ND / ND / ND | 0/9
KSSQSVLYESRNKNSVA | WASTRES | QQNHRLPQS | ND / ND / ND | 0/9
KSSQSGLYESRNKNSVA | WASTRES | QQYHRLPLS | 0.74 / 0.87 / 0.74 | 2/9 (4.19)
KSSQSVLYESRNCMSVA | WASTRES | QQYHRLPGS | 3.79 / 3.98 / ND | 2/9 (4.00)
DSSQSVLHESRNKNSVA | WASTREM | QQYHRLPLS | 1.60 / 2.09 / 1.51 | 1/9 (3.52)
KSSQSVTYESRNKNSVP | WASTPES | QQYHRLPLS | ND / ND / ND | 0/9
KSSQSVFYESYNKNSVA | TASTRES | QQYHRLPLS | 1.95 / 2.08 / 1.94 | 1/9 (3.27)
KSSQFVLYEGRNKNSVA | WASTRES | QAYHRLPLS | 0.59 / 0.84 / 0.79 | 0/9

Repeated from above, the 6 best binders with a signal in all replicates:

CDR-L1 | CDR-L2 | CDR-L3 | log10 Kd, replicates | empty controls
KMSQSVLYNSRNKNSMA | WASTRES | QQYHRLPLS | 0.13 / 0.58 / 0.18 | 0/9
KSSQSTEYESRNKNSVA | WASTRES | QQYHRVPLS | 0.21 / 0.60 / 0.36 | 0/9
KSEQSVLYESRNGNNVA | WASTRES | QQYHRLPLS | 0.17 / 0.61 / 0.56 | 0/9
KSSQSVLYESRNANSVA | WASTRED | QQYHRLGLS | 0.53 / 0.85 / 0.39 | 0/9
KSSQFVLYEGRNKNSVA | WASTRES | QAYHRLPLS | 0.59 / 0.84 / 0.79 | 0/9
KSSQSVLYESRNANSVA | WASTRES | EQYHRLPLM | 0.57 / 0.92 / 0.77 | 0/9

Values reported by Engelhart et al. 2022, doi:10.1038/s41597-022-01779-4 (FLAb copy).